# Test results: PubChem BioAssay AID588456 (National Center for Advancing Translational Sciences (NCATS), 2011)
# Amino acid sequences for entries named in this document (tags omitted).
# UniProt O89049, whole entry: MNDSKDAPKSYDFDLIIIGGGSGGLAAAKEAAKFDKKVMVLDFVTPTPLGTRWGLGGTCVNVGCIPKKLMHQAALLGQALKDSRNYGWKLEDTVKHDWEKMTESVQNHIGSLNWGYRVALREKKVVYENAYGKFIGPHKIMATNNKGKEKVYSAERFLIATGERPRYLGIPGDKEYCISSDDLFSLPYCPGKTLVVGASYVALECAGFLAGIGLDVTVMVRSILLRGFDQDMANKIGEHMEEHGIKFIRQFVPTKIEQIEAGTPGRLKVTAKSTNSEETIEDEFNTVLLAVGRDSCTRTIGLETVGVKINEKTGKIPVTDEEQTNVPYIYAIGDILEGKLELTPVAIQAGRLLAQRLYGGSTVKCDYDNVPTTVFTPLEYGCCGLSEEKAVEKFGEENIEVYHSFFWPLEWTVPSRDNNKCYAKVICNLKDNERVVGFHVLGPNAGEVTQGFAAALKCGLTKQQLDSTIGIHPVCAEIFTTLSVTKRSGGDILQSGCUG
# This is a selection; strong and weak results do not stand in their true shares. Activity calls are given as the source filed them. Calls come from the whole dose curve; as a rule, active = well fitted inhibition curve with a large enough effect; inconclusive = small, poorly fitted or top-dose-only effect; inactive = no such curve, though single readings can be large or run the other way.
# Target: Thioredoxin reductase 1, cytoplasmic (Rattus norvegicus) (UniProt O89049)
# Assay: qHTS Assay for Substrates of Mammalian Selenoprotein Thioredoxin Reductase 1 (TrxR1): qHTS; note: nearly all actives have a fitted effect of over 50% in size
# Conditions: purified TrxR1 substrate turnover, NADPH consumption readout; at 57.1 µM (top of the series) unless noted
# % is set by controls: 0 for no effect and ±100 for the full control effect.
row,Compound,"activity change, negative = substrate turnover"
1,CC(C)(C)c1ccc(OP(C)(=O)Nc2ccc(SC(F)(F)F)cc2)cc1 (configuration not stated),inactive: -16.1% [at 114 µM]
2,Cc1ccc(NP(=O)(Oc2cccc(C)c2)Oc2cccc(C)c2)nc1,inactive: 5.59%
